# Measured values: patent US5464551A, “Stabilized phosphate ester-based functional fluid compositions” (Monsanto Company, priority 1993, dated 1995)
# How the values were obtained:
# [1] = Skin irritation (Table A); conditions: in vivo
# [2] = Genotoxicity: in vitro cytogenetics
# [3] = Genotoxicity: in vivo cytogenetics
# [4] = system: CHO/HGPRT; test: Genotoxicity: CHO/HGPRT
# [5] = Erosion test, wall currents through simulated orifices (Table 5); conditions: sample as named; W samples fresh
# [6] = system: Hen; test: Hen neurotox (Table A); conditions: tested at LD50
# [7] = system: Bladder; test: Subchronic bladder hyperplasia (Table A)
# [8] = Dermal LD50 (Table A)
# [9] = Oral LD50 (Table A)
# [10] = system: Ames; test: Genotoxicity: Ames
# [11] = Eye irritation (Table A); conditions: in vivo
structure (smiles),measurement,setting,value
CCCCOP(=O)(OCCCC)OCCCC,Skin Irritation,[1],Severely irritating
same,in vitro cytogenetics,[2],negative
same,in vivo cytogenetics,[3],negative
same,CHO/HGPRT,[4],negative
same,Independent Lab Cond.,[5],0.008 μMHO/cm
same,Hen Neurotox,[6],Not neurotoxic
same,"Subchronic Bladder Hyperplasia, level in rats",[7],> 1000 ppm
same,"NOEL, subchronic bladder hyperplasia",[7]; rats,200 ppm
same,Dermal LD50,[8],"> 10,000 mg/kg"
same,Oral LD50,[9],1200 mg/kg
same,Ames,[10],negative
same,Eye Irritation,[11],Mildly irritating
